Patent US8846104B2, “Pharmaceutical compositions for the deterrence and/or prevention of abuse” (priority 2006, dated 2014)

Conditions: in comparison to a 15 mg dose of hydrocodone

CN1CC[C@]23c4c5ccc(O)c4O[C@H]2C(=O)CC[C@H]3[C@H]1C5 [Hydromorphone]
Equianalgesic Calculated Dose: 3.375 mg
